According to PubChem BioAssay AID1229 (Sanford-Burnham Center for Chemical Genomics, 2008):
The entries are a selection whose mix differs from that of the whole data set. The source made the active and inactive calls.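 How the source made its calls: active means diaphorase activity raised at least twofold by the compound at 20 µM; inactive means activation factor below 2.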

test: compounds boosting diaphorase resazurin reduction – biochemical, uHTS, resorufin fluorescence, counter-screen for diaphorase-coupled primary assays, primary screen (AID 1229); conditions: Diaphorase/resazurin coupled assay, 16 min, at 20 µM; active compounds read high, 1 = vehicle wells, 0 = NADH-free wells
Method in brief: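 Material: Purified diaphorase enzyme from Clostridium kluyveri | Buffer or medium: 50 mM HEPES pH 7.4 with 4.542 mM MgCl2, 0.005% Tween 20 | Times: 16 min enzyme reaction, ambient temperature | Signal: Red resorufin fluorescence at 544/590 nm excitation/emission | Measure: Increased resorufin signal from activators or reducing compounds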

SMILES	activation factor
CCN1CCC(Nc2cccc(F)c2)CC1	inactive: 0.8
CN(C)c1ccc(C(=O)NCC2(N3CCCCC3)CCCCC2)cc1	inactive: 1
Fc1ccccc1NC1CCN(Cc2ccccc2)CC1	inactive: 0.8
COc1cc(OC)cc(C(=O)NCC2(N3CCOCC3)CCCCC2)c1	inactive: 1
CCC(CO)(C(=O)OC1CN2CCC1CC2)c1ccccc1 (stereo not given)	inactive
CCOc1ncccc1C(=O)NCC1(N2CCOCC2)CCCCC1	inactive
CC(C)(C)OC(=O)N1CCC(Nc2ccccc2)CC1	inactive: 1
N/C(=N\O)c1c(N)no[n+]1[O-]	inactive: 1
O=C(OC1CN2CCC1CC2)C1c2ccccc2C=Cc2ccccc21 (stereo not given)	inactive: 1
COc1ccc(C(=O)NCC2(N3CCOCC3)CCCCC2)cc1OC	inactive: 1
c1ccc(CN2CCC(Nc3ccccc3)CC2)cc1	inactive: 0.8
N#Cc1ccc(C(=O)NCC2(N3CCCCC3)CCCCC2)cc1	inactive: 1
O=C(NCC1(N2CCOCC2)CCCCC1)c1cc(=O)[nH]c2ccccc12	inactive: 1
COc1ccc(NC2CCN(C(=O)OC(C)(C)C)CC2)cc1	inactive
CN1CCN(CCOC(=O)C(O)(c2ccccc2)c2ccccc2)CC1	inactive
N#CC1(Nc2ccccc2)CCN(CCc2ccccc2)CC1	inactive: 1
O=C(NCC1(N2CCCCC2)CCCCC1)c1cccc([N+](=O)[O-])c1	inactive: 1
CC(C)c1ccc(NC2CCN(C(=O)OC(C)(C)C)CC2)cc1	inactive: 0.8
COc1ccc(CN(CCCl)CCCl)cc1Cl	inactive: 1.1
CN(C)c1cccc(C(=O)NCC2(N3CCCCC3)CCCCC2)c1	inactive
O=C(NCC1(N2CCOCC2)CCCCC1)c1cc2ccccc2o1	inactive
O=C(OC1CN2CCC1CC2)C1c2ccccc2Oc2ccccc21 (stereo not given)	inactive: 0.8
CCOC(=O)N1CCC(Nc2ccc(OC)cc2)CC1	inactive: 1
COc1ccc(C(=O)NCC2(N3CCCCC3)CCCCC2)c(OC)c1OC	inactive: 1.1
COc1ccc(NC2CCN(CCc3ccccc3)CC2)c(OC)c1	inactive: 0.7
